Assay results taken from patent US8278280B2, “Antagonists of the bradykinin B1 receptor” (priority 2003, dated 2012).

Tests used:
human B1 receptor = biological target: T1, human B1 receptor (Homo sapiens, UniProt P46663); experiment: In vitro assay of human B1 receptor function using calcium flux (aequorin); assay type: cell-based
T1 construct: expressed in transfected cells
T1 sequence (P46663 1-353): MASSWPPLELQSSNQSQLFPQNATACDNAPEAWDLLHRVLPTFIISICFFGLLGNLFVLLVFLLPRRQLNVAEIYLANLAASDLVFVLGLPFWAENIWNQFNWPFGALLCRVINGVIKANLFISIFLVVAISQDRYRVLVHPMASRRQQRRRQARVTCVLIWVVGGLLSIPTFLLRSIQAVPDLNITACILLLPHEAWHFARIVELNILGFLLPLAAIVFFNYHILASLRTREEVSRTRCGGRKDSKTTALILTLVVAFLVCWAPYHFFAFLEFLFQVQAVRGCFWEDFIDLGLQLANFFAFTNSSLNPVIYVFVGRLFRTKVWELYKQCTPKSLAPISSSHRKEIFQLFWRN
Source text: Activation of the Gq linked B1 receptor results in an increase in intracellular calcium. […] Aequorin is a 21-kDa photoprotein that forms a bioluminescent complex when linked to the chromophore cofactor coelenterazine.

human B1 receptor (hB1) = biological target: T2, human B1 receptor (hB1) (Homo sapiens, UniProt P46663); experiment: Binding affinity (Ki) at the human B1 receptor
T2 sequence (P46663 1-353): T1 sequence (P46663 1-353)

[1] = Rat pharmacokinetic studies; assay type: in vivo, male Sprague-Dawley rats
Method: Various peptides or conjugated peptides (in an aqueous medium) were dosed as a bolus to male Sprague-Dawley rats via an intravenous (iv) or subcutaneous (sc) route. Blood samples were collected at various time points (e.g., 0, 15, 30 minutes and/or 1, 2, 4, 6, 8, 10, 12, 18, 24, 30, 36, 42, 48, 60, 72, 84, 96, 120, 240, and/or 320 hours after the injection) into heparized tubes. Plasma was removed from pelleted cells upon centrifugation and either frozen or immediately processed. The compound of interest in the plasma was quantitated by an analyte-specific LC-MS/MS or an ELISA method. Various standard pharmacokinetic parameters such as clearance (CL), apparent clearance (CL/F), volume of distribution (Vss), mean residence time (MRT), area under the curve (AUC), and terminal half-life (t1/2) were calculated by non-compartmental method (for example, see Table 9).

[2] = cited from earlier work
[3] = Table 8, functional potency, read-out: hB1 IC50
[4] = hB1 aequorin assay, text values (n=8, n=9), read-out: IC50 at the hB1 receptor

| Substance | IC50 (human B1 receptor; [3]) [nM] | IC50 (human B1 receptor; [4]) [nM] | Ki (human B1 receptor (hB1)) [nM] | t1/2 ([1]; 3 mpk iv) | t1/2 ([1]; 30 mpk sc) | t1/2 ([1]; 1 mpk iv) | half-life in plasma [2] | t1/2 ([1]; 1 mpk sc) |
| --- | --- | --- | --- | --- | --- | --- | --- | --- |
| acyl-KKRP[Hyp]G[Cpg]S[DTic]Cpg] [SEQ ID NO: 37] | 1 | 3.2 | 0.8 | 0.4^i h | 0.6^g h | – | – | – |
| Lys Lys Arg Pro Hyp Gly Cpg Ser DTic Cpg [SEQ ID NO: 13, reference compound] | 0.5 | 3 | 0.1 | – | 1.2^g h | 0.6^h | – | – |
| Arg Pro Pro Gly Phe Ser Pro Phe Arg [BK] | – | – | – | – | – | – | approximately 17 seconds | – |
| Lys D-2-Nal Arg Pro Hyp Gly Cpg Ser DTic Cpg [SEQ ID NO: 50] | 6 | – | 0.2 | 2.0^i h | – | – | – | – |
| D-Lys D-2-Nal Arg Pro Hyp Gly Cpg Ser DTic Cpg [SEQ ID NO: 49] | 0.5 | – | 0.77 | 1.0^i h | – | – | – | – |
| DLys Lys Arg Pro Hyp Gly Cpg Ser DTic Cpg [SEQ ID NO: 22] | 2 | – | 0.38 | 1.0^i h | – | – | – | – |
| DOrn Lys Arg Pro Hyp Gly Cpg Ser DTic Cpg [SEQ ID NO: 15] | 1 | – | 0.19 | – | – | – | – | 2.76^c h |

Where two headings read alike, the source gives them in different places. Marks after values point to notes of the source that are not given here.
